# Binding of CDR-mutated scFvs to a peptide of the spike HR2 region

Target: peptide PDVDLGDISGINAS, taken from heptad repeat 2 (HR2) of SARS-CoV-2 spike.

Parent: Ab-14, a human scFv built as VH, a (GGGGS)3 linker, VL. Only the CDRs of the light chain vary.
VH: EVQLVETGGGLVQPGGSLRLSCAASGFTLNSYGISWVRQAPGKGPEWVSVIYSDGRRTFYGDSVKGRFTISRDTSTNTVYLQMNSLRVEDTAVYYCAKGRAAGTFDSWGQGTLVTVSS
VL: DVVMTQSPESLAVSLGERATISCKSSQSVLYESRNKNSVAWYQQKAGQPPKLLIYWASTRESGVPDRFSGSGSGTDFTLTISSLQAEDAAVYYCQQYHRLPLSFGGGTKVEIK

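Library AAYL50 holds single substitutions and randomly drawn double and triple substitutions in the CDRs. Affinity was read by AlphaSeq, a pooled yeast mating assay with surface-displayed partners. The frequency of each diploid, read from paired DNA barcodes, reflects how well the two displayed proteins bind. A regression on co-assayed BCL2-family reference pairs converts the normalised counts of each replicate to an apparent Kd. Mating was done three times.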

The parent's light chain CDRs are KSSQSVLYESRNKNSVA, WASTRES, QQYHRLPLS; each variant's own CDRs replace them letter for letter. All variants listed here change K24 of the VL, counted from its first residue. Kd is apparent (estimated from mating counts) and averaged on the log scale over replicates with a signal. Smaller is tighter. A pair that was not seen in any replicate is written "no signal"; this usually means weak binding, but a binder can also be missed. Order: sorted from the lowest average up, undetected variants last. Background: pairings of library AAYL50 with three empty control strains gave a value in 18% of cases (median 15 µM, 5th percentile 970 nM). Values in that range, when seen in few replicates, are hard to tell from nonspecific mating. For each scFv, signals with the empty controls are counted beside the result.

The variant FSSQSVLYESRNKNSHA | WASTRES | QDYHRLPLS showed 2.6 nM (3 of 3 replicates; controls 2 of 9).
The variant HSSQSVQYESRNKNSVA | WASTREL | QQYHRLPLS showed 7.4 nM (3 of 3 replicates; controls 3 of 9).
The variant MSSQSNLYESRNKNSVA | WASTRES | QSYHRLPLS showed 7.6 nM (3 of 3 replicates; controls 6 of 9).
The variant RSSQSVLYESRNKNSVA | WASTRES | QQYHNLPLS showed 7.8 nM (3 of 3 replicates; controls 1 of 9).
The variant QSSQSVLYESRNKNSVA | WASTRES | QQYHRLPNT showed 8.0 nM (3 of 3 replicates; controls 1 of 9).
The variant SSSQSVLYESFNKNSVA | WASMRES | QQYHRLPLS showed 12 nM (3 of 3 replicates; controls 1 of 9).
The variant FASQNVLYESRNKNSVA | WASTRES | QQYHRLPLS showed 23 nM (2 of 3 replicates; controls 0 of 9).
The variant HSSQSVLGESRNKNSVA | WASTRIS | QQYHRLPLS showed 23 nM (3 of 3 replicates; controls 5 of 9).
The variant YSSQSELYESRNKNSVA | WASTRES | QQYHRLPLS showed 33 nM (3 of 3 replicates; controls 0 of 9).
The variant LSSQSVDYEARNKNSVA | WASTRES | QQYHRLPLS showed 37 nM (3 of 3 replicates; controls 3 of 9).
The variant GSSQSVLYESRNKNSVA | WASTRES | QQYHRLPLS showed 48 nM (3 of 3 replicates; controls 2 of 9).
The variant NSSQSQLYESRNKNSVA | WASTRES | QQYHRLPLS showed 58 nM (3 of 3 replicates; controls 3 of 9).
The variant GSSQSALYESRNKNSVA | WASTRES | QQYHRLPLS showed 65 nM (3 of 3 replicates; controls 2 of 9).
The variant VSSQSVSYESRNKNSVA | WASTRES | QQYHRLPLS showed 74 nM (3 of 3 replicates; controls 2 of 9).
The variant LSSQSVHYESRNGNSVA | WASTRES | QQYHRLPLS showed 92 nM (3 of 3 replicates; controls 8 of 9).
The variant ESSQSVGYESRNKNSVA | WASTRES | QQLHRLPLS showed 93 nM (3 of 3 replicates; controls 1 of 9).
The variant QSSQSVLYESRNKNSVA | WASTRES | QQYIGLPLS showed 110 nM (3 of 3 replicates; controls 2 of 9).
The variant WSSQSVLYESRNKNSVA | WASTRES | QQYHRLPLS showed 140 nM (3 of 3 replicates; controls 0 of 9).
The variant ISSQSVLYESRNDNSVA | WASTREC | QQYHRLPLS showed 180 nM (3 of 3 replicates; controls 4 of 9).
The variant ISSQSVLYESRNKNSVA | WASKRES | QQYHRLCLS showed 190 nM (3 of 3 replicates; controls 4 of 9).
The variant LSSQATLYESRNKNSVA | WASTRES | QQYHRLPLS showed 190 nM (3 of 3 replicates; controls 8 of 9).
The variant DGSQSVLYESYNKNSVA | WASTRES | QQYHRLPLS showed 320 nM (1 of 3 replicates; controls 1 of 9).
The variant VSSQSVLYESRNKNSVA | WASTRES | QGYHRLPSS showed 380 nM (1 of 3 replicates; controls 0 of 9).
The variant HSSQSVLYRSRNKNSVA | WASTRES | QQYHRLPLS showed 400 nM (3 of 3 replicates; controls 0 of 9).
The variant WSSQSHLYESRNKNTVA | WASTRES | QQYHRLPLS showed 1.2 µM (1 of 3 replicates; controls 1 of 9).
The variant QSSQSVLYESRNKNSVA | WASTRES | QQYHRYPLS showed 1.5 µM (3 of 3 replicates; controls 3 of 9).
The variant CSSQSVLYECRNKNSVA | WASTRES | QFYHRLPLS showed 15 µM (1 of 3 replicates; controls 0 of 9).
The variant SSSQSVLYESRNKNSCA | WCSTRES | QQYHRLPLS showed 20 µM (3 of 3 replicates; controls 6 of 9).
The variant ESSQSVLYESRNSNSGA | WASTRES | QQYHRLPLS showed 28 µM (1 of 3 replicates; controls 0 of 9).
The variant ASSQFVLYESRNKNSVA | WASTEES | QQYHRLPLS showed 52 µM (1 of 3 replicates; controls 0 of 9).
The variant PSSQSVAYESRNKNSVQ | WASTRES | QQYHRLPLS showed 180 µM (2 of 3 replicates; controls 4 of 9).
The variant VSSQSVLYESRNKNSVA | WNSTRES | QQYHHLPLS showed no signal (0 of 3 replicates; controls 7 of 9).
The variant GSSQSVLYESRNKNMVA | WASTRES | QQYHRLVLS showed no signal (0 of 3 replicates; controls 0 of 9).
The variant ISSQSVLYCSRNKNSVA | WKSTRES | QQYHRLPLS showed no signal (0 of 3 replicates; controls 1 of 9).
The variant DSSQSVLYESRNKNSVA | WKSGRES | QQYHRLPLS showed no signal (0 of 3 replicates; controls 3 of 9).
The variant CSSQSVLHESCNKNSVA | WASTRES | QQYHRLPLS showed no signal (0 of 3 replicates; controls 0 of 9).
The variant QSSQSVLYERRNKNSVA | WASTTES | QQYHRLPLS showed no signal (0 of 3 replicates; controls 1 of 9).
The variant YSSQSVLYESRNKNSVA | WASTRWS | QQYHRLCLS showed no signal (0 of 3 replicates; controls 2 of 9).

The 6 strongest on average among those seen in every replicate, once more:

{"CDR-L1": "FSSQSVLYESRNKNSHA", "CDR-L2": "WASTRES", "CDR-L3": "QDYHRLPLS", "apparent Kd": "2.6 nM", "seen in": "3/3", "empty controls": "2/9"}
{"CDR-L1": "HSSQSVQYESRNKNSVA", "CDR-L2": "WASTREL", "CDR-L3": "QQYHRLPLS", "apparent Kd": "7.4 nM", "seen in": "3/3", "empty controls": "3/9"}
{"CDR-L1": "MSSQSNLYESRNKNSVA", "CDR-L2": "WASTRES", "CDR-L3": "QSYHRLPLS", "apparent Kd": "7.6 nM", "seen in": "3/3", "empty controls": "6/9"}
{"CDR-L1": "RSSQSVLYESRNKNSVA", "CDR-L2": "WASTRES", "CDR-L3": "QQYHNLPLS", "apparent Kd": "7.8 nM", "seen in": "3/3", "empty controls": "1/9"}
{"CDR-L1": "QSSQSVLYESRNKNSVA", "CDR-L2": "WASTRES", "CDR-L3": "QQYHRLPNT", "apparent Kd": "8.0 nM", "seen in": "3/3", "empty controls": "1/9"}
{"CDR-L1": "SSSQSVLYESFNKNSVA", "CDR-L2": "WASMRES", "CDR-L3": "QQYHRLPLS", "apparent Kd": "12 nM", "seen in": "3/3", "empty controls": "1/9"}

In this assay the parent's reference entry averaged 4.4 nM; its copy inside this library read 48 nM.

The measurements come from Engelhart et al. 2022 (doi:10.1038/s41597-022-01779-4) through the FLAb antibody collection.